High-throughput results from PubChem BioAssay.
A selection: hits, their analogues and other compounds. The true share with any hit is near 1.6%.
ARNT TACC3 PPI = ARNT/TACC3 interaction disruption | Q9Y6A5 | AlphaScreen His-ARNT PAS-B/GST-TACC3 binding, luminescence; TACC3 fragment carries E629A point mutation | inhibition, % at 9.99 µM | 0.66% of 390,000 active | AID 623870;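 active means mean inhibition of replicates at least 50% and at least half of replicates each reaching 50%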;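 further: 0% = complete ARNT plus TACC3 wells and 100% = ARNT alone without TACC3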
Vif inh = HIV Vif inhibition; HEK293T cells, Vif self-association by quenched fluorescence, imaging, 24 h; inhibition, % at 7.49 µM; 0.35% of 340,000 active; AID 602346; in the data active means inhibition above about 50%, passing the limit was not always enough
CAL PDZ FP-1 = inhibitors of human CAL PDZ peptide binding | purified CAL PDZ, TMR-peptide fluorescence polarization, 1 h | inhibition, % at 24.9 µM | 0.92% of 300,000 active;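 active means mean inhibition of at least 30% with at least half of replicates also reaching 30%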;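 further: 0% = DMSO neutral control and 100% = excess unlabeled competitor peptide PRC23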
CAL PDZ FP-2 = blocks peptide binding to human CAL PDZ domain | inhibition, % at 20 µM | purified CAL PDZ, TMR-peptide fluorescence polarization, 1 h | AID 504414 | Q9HD26 | 0.02% of 330,000 active;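 active means highest replicate inhibition of at least 40%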;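 further: plate controls were DMSO neutral control wells for no effect and unlabeled competitor peptide control wells for full effect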
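Material – purified CerCALP PDZ construct · Detection – FP readout, S and P plane fluorescence · Measure – percent inhibition from loss of millipolarization · Controls – unlabelled peptide for full inhibition, DMSO wells as neutral · Probe or stimulus – TMR-labelled reporter peptide T*-PRC34 bound in PDZ groove · Times – 1 h at RT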
PglD DTNB = PglD (C. jejuni) enzyme inhibition; 0.098% of 360,000 active; inhibition, % at 12.5 µM; purified PglD enzyme, DTNB colorimetric CoA detection; in the data active means inhibition above about 16%, passing the limit was not always enough
UUG fidelity = yeast start codon fidelity modulation | S. cerevisiae UUG-firefly luciferase reporter, luminescence/redox ratio | activity score, % at 18.7 µM | hit rate 0.13% among 350,000 | AID 602363;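 active means replicate mean at a twofold rise or more, about +100% in these data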;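 further: firefly luciferase made from a UUG start codon reports start codon fidelity; reporter light over untreated wells divided by growth signal over untreated wells; some hits fall short of that in this replicate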
* = called active by the depositor; . = not tested or not shown.

No. | ARNT TACC3 PPI | Vif inh | CAL PDZ FP-1 | CAL PDZ FP-2 | PglD DTNB | UUG fidelity | structure
1 | 42.5* | 0.6 | 0.0 | -2.8 | -1.0 | -18.8 | O=C(Nc1ccc2c(c1)nc1n2CCN(Cc2ccccc2)C1)c1cccs1
2 | -14.0 | 11.1 | 1.5 | -0.9 | -5.5 | -17.1 | O=C(OCc1ccccc1)c1ccccc1
3 | -9.3 | 77.5* | -2.7 | -1.6 | . | . | O=C(CN(C(=O)c1ccccc1)C(=O)c1ccccc1)OCc1ccccc1
4 | -0.2 | -3.3 | 40.9* | -3.4 | -9.1 | -20.8 | COc1ccc(C2NN=C(c3ccc(C)cc3)S2)cc1 (stereo not drawn)
5 | -2.6 | -3.9 | 53.5* | -1.2 | -1.9 | -19.0 | O=C(c1ccc2nc[nH]c2c1)N1CCc2ccccc2C1
6 | 2.8 | 73.4* | -4.9 | -1.8 | 4.5 | -12.5 | Cc1csc(NC(=O)CSc2ncnc3c2cnn3-c2ccccc2Cl)n1
7 | -11.8 | 4.1 | 7.4 | 1.1 | . | . | CC(C)C(=O)NNC(=O)CSc1ncnc2c1cnn2-c1ccccc1Cl
8 | -4.9 | . | . | . | -5.7 | -5.1 | C/C=C/c1cnc2c(c1)C(=O)N([C@@H](C)CO)C[C@H](C)[C@@H](CN(C)C(=O)NCCC)O2
9 | 4.7 | 21.8 | 45.4* | 0.5 | 2.0 | -12.5 | CCOC(=O)CSc1nnc(-c2ccoc2C)n1-c1ccc(C)cc1
10 | 3.0 | . | . | . | 2.0 | 13.0 | C[C@H](CO)N1C[C@H](C)[C@H](CN(C)C(=O)Nc2cc(F)ccc2F)Oc2ncc(C#CCN(C)C)cc2C1=O
11 | -1.2 | . | . | . | 4.2 | 24.5 | Cc1cc(C(=O)Nc2cccc3c2O[C@@H](CN(C)Cc2ccc(Oc4ccccc4)cc2)[C@H](C)CN([C@@H](C)CO)C3=O)n(C)n1
12 | -23.5 | 2.6 | -0.3 | -0.1 | . | . | O=C(Nc1nnc(-c2ccc(Cl)cc2)o1)c1ccc(N2C(=O)CCC2=O)cc1
13 | 58.1* | 8.7 | 3.5 | 0.2 | . | . | O=C(Nc1nnc(-c2ccco2)o1)c1ccc(N2C(=O)CCC2=O)cc1
14 | 48.6* | -9.1 | -1.4 | -1.6 | 2.5 | -25.6 | Cc1nn(-c2ccccc2)c(C)c1C(=O)Nc1nnc(-c2ccco2)o1
15 | . | 11.5 | -2.5 | -1.6 | 8.3 | -30.9 | CN(c1ccccc1)S(=O)(=O)c1ccc(C(=O)Nc2nnc(-c3ccco3)o2)cc1
16 | -4.1 | . | . | . | -0.3 | 0.1 | CN(C)CC(=O)Nc1ccc2c(c1)[C@@H]1C[C@H](CC(=O)NCc3ccc(Cl)cc3)O[C@H](CO)[C@@H]1O2
17 | 12.5 | . | . | . | 6.1 | -0.8 | COc1ccc(S(=O)(=O)N(C)C[C@@H]2Oc3ccc(N(C)C)cc3CC(=O)N([C@H](C)CO)C[C@H]2C)cc1
18 | -3.4 | 70.9* | -1.5 | -0.7 | -2.3 | -13.8 | Cc1ccc(Cl)cc1N1CCN(C(c2cccnc2)c2nnnn2C2CCCCC2)CC1 (stereo not drawn)
19 | 1.0 | . | . | . | 0.4 | 22.6 | C[C@@H]1CCCCO[C@@H](CN(C)S(=O)(=O)c2ccc(F)cc2)[C@H](C)CN([C@H](C)CO)C(=O)c2cc(NC(=O)CCCN(C)C)ccc2O1
20 | 3.6 | 51.0* | -1.9 | -1.8 | . | . | COc1ccc(OCCCC(=O)Nc2ncn[nH]2)cc1
21 | . | . | . | . | -8.4 | . | O=C(NCC[C@@H]1CC[C@H](NC(=O)c2cccnc2)[C@H](CO)O1)Nc1ccc(C(F)(F)F)cc1
22 | 3.7 | -1.9 | 75.8* | -0.4 | . | . | CCOc1ccc(NS(=O)(=O)c2ccc(NC(=O)c3ccccc3C(=O)O)cc2)cc1
23 | . | 72.3* | -2.3 | 0.7 | -0.2 | -24.3 | CCOc1ccc(S(=O)(=O)Nc2cccc(C(=O)N(C)CC(=O)Nc3ccc(OC)cc3)c2)cc1
24 | -25.8 | . | . | . | 3.8 | . | CC=Cc1ccc2n(c1=O)C[C@@H]1[C@@H](CO)[C@H](C(=O)Nc3ccc(-c4ccccc4)cc3)N(CCC)[C@H]21 (mixture of isomers)
25 | 9.3 | -4.5 | -7.2 | 1.0 | 9.3 | -32.2 | C/C(=N\NC(=S)NC1CCCCC1)c1cccs1
26 | 0.4 | -3.5 | 43.7* | -0.2 | 7.0 | -38.4 | C/C(=N\NC(=S)NC1CCCCC1)c1c(F)cccc1F
27 | 7.4 | . | . | . | 0.3 | -3.7 | COc1ccc(NC(=O)Nc2ccc3c(c2)C(=O)N([C@H](C)CO)C[C@@H](C)[C@@H](CN(C)C(=O)NC2CCCCC2)OCCCC[C@H](C)O3)cc1
28 | -2.5 | 20.2 | 74.0* | -0.8 | -14.5 | 5.0 | Cc1cccc(N(CC(=O)NC2CCCCC2)C(=O)CCCC(=O)Nc2ccccn2)c1
29 | -4.2 | -0.2 | 1.6 | -0.7 | . | . | Cc1cccc(N(CC(=O)NC2CCCC2)C(=O)CCCC(=O)Nc2ccccn2)c1
30 | 40.8 | . | . | . | 2.4 | 3.4 | Cc1ccc(S(=O)(=O)NCC[C@@H]2CC[C@@H](NC(=O)C3CCOCC3)[C@H](CO)O2)cc1
31 | 14.8 | 8.2 | 77.3* | -0.9 | . | . | CC(=O)c1cc(C(=O)N2CCc3c([nH]c4ccccc34)C2CC(C)C)[nH]n1 (stereo not drawn)
32 | -1.2 | 1.6 | -3.5 | -1.5 | -1.7 | 2.1 | CC(C)CC1c2[nH]c3ccccc3c2CCN1C(=O)CCC(=O)N(C)C (stereo not drawn)
33 | . | -1.2 | 82.3* | -1.4 | 3.0 | 2.4 | O=C(N/C(=C\c1ccc(Cl)cc1)C(=O)N1CCCCC1)c1ccco1
34 | -0.3 | . | . | . | -3.2 | 10.2 | C[C@H]1CN([C@@H](C)CO)C(=O)Cc2cc(NC(=O)Nc3ccccc3)ccc2O[C@H]1CN(C)Cc1ccc(C(=O)O)cc1
35 | 9.4 | 3.5 | 38.6* | . | 4.5 | -1.3 | O=C1c2ccsc2SCCN1Cc1ccc(F)cc1
36 | -7.7 | . | . | . | 6.3 | -3.1 | C/C=C/c1cnc2c(c1)C(=O)N([C@H](C)CO)C[C@H](C)[C@@H](CN(C)C(=O)C1CCCCC1)O2
37 | 3.2 | 16.8 | 62.3* | . | -4.1 | 1.7 | COc1cc2c(cc1OC)C(c1ccc(Br)cc1)CC(=O)N2 (stereo not drawn)
38 | -3.9 | 54.9* | -0.9 | -1.5 | -2.4 | 7.7 | COc1ccccc1CNC(=O)C1CCC(CNS(=O)(=O)c2cccs2)CC1 (stereo not drawn)
39 | -18.6 | -1.3 | -3.0 | -0.9 | 1.4 | -19.3 | O=C(NCc1cccs1)C1CCC(CNS(=O)(=O)c2cccs2)CC1 (stereo not drawn)
40 | 67.2* | -6.9 | 0.1 | -0.4 | 0.2 | -15.1 | Oc1ccc2ccccc2c1C=NC12CN3CCN(CN(C3)C1)C2
41 | 66.5* | -3.4 | -4.3 | -1.2 | 5.7 | -13.1 | Cc1ccc(O)c(/C=N/NC(=O)CN2CCCC2)c1
42 | 11.1 | 3.9 | -2.5 | 0.2 | 0.9 | -0.2 | OCC(CO)(CO)N=Cc1c(O)ccc2ccccc12
43 | -6.3 | -1.7 | 0.8 | 0.0 | -5.7 | -7.3 | Cc1cccc(/C=N/NC(=O)CN2CCCCCCC2)c1
44 | 58.9* | -14.2 | -1.2 | 2.1 | -0.2 | -28.7 | O=C(CN1CCCC1)N/N=C/c1c(O)ccc2ccccc12
45 | -0.1 | . | . | . | 1.6 | 3.5 | CCNC(=O)Nc1ccc2c(c1)C(=O)N(C)[C@@H]1CC[C@H](CC(=O)NCC3CC3)O[C@H]1CO2
46 | -2.3 | . | . | . | -3.5 | -7.8 | O=C(C[C@H]1CC[C@H](NS(=O)(=O)c2ccc(F)cc2)[C@@H](CO)O1)NC1CCCCC1

Two entries from above, as a markdown table:
| no. | SMILES | ARNT TACC3 PPI | Vif inh | CAL PDZ FP-1 | CAL PDZ FP-2 | PglD DTNB | UUG fidelity |
| --- | --- | --- | --- | --- | --- | --- | --- |
| 36 | C/C=C/c1cnc2c(c1)C(=O)N([C@H](C)CO)C[C@H](C)[C@@H](CN(C)C(=O)C1CCCCC1)O2 | -7.7 | . | . | . | 6.3 | -3.1 |
| 37 | COc1cc2c(cc1OC)C(c1ccc(Br)cc1)CC(=O)N2 (stereo not drawn) | 3.2 | 16.8 | 62.3* | . | -4.1 | 1.7 |

Of the compounds above, these contain a COOH group.
No. | ARNT TACC3 PPI | Vif inh | CAL PDZ FP-1 | CAL PDZ FP-2 | PglD DTNB | UUG fidelity | structure
22 | 3.7 | -1.9 | 75.8* | -0.4 | . | . | CCOc1ccc(NS(=O)(=O)c2ccc(NC(=O)c3ccccc3C(=O)O)cc2)cc1
34 | -0.3 | . | . | . | -3.2 | 10.2 | C[C@H]1CN([C@@H](C)CO)C(=O)Cc2cc(NC(=O)Nc3ccccc3)ccc2O[C@H]1CN(C)Cc1ccc(C(=O)O)cc1
